# Values quoted from earlier work, collected in PMC3951241 (Journal of medicinal chemistry, 2013).
# Chains of the proteins cited; added tags and fusions are not shown. Residues count along the entry.
# UniProt P62813, 28-455: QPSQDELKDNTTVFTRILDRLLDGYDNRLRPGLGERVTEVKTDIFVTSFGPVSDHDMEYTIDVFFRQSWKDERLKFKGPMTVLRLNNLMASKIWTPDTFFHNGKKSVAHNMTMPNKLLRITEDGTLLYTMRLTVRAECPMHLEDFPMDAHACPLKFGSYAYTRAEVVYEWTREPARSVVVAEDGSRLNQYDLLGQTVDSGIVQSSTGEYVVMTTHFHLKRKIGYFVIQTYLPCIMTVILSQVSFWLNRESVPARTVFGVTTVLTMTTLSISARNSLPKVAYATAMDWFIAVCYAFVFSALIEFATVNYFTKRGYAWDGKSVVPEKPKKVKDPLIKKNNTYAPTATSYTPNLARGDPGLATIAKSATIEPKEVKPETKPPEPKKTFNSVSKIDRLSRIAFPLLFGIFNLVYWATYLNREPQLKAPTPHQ
# UniProt P63138, 26-474: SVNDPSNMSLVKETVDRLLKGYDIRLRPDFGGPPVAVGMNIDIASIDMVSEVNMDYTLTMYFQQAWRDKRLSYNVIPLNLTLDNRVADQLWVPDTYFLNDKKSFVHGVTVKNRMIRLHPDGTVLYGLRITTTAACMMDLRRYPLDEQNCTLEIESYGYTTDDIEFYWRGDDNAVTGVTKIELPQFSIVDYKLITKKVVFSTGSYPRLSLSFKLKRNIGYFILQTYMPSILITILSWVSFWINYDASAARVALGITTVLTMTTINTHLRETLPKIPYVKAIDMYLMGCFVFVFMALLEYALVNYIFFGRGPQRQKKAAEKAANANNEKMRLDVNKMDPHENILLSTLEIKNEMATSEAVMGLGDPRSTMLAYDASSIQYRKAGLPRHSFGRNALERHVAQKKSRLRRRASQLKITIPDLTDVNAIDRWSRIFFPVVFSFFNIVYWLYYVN
# Target: rat α1β2γ2L type GABAA receptors expressed in Xenopus laevis oocytes (Rattus norvegicus, UniProt P62813+P63138)
# Conditions: 1 μM compound, 2 μM GABA; literature values ref 15; cited from earlier work
smiles,measurement,value
"C[C@]12CC[C@@H](O)C[C@@H]1CC[C@@H]1[C@@H]2C(=O)C[C@]2(C)/C(=C\C#N)CC[C@@H]12 [compound 4, [3α,5α,17(20)Z]-3-Hydroxy-11-oxopregn-17(20)-ene-21-nitrile]","oocyte electrophysiology 1 μM, ratio of currents in presence/absence of compound",5.06 ± 0.60
